Patent publication US20050059014A1, “Analytical platform and detection method with the analytes to be determined in a sample as immobilized specific binding partners” (priority 2002, published 2005)

Tested on: p44/42 MAP kinase (sum of Erk2 and pErk2)
Experiment: Cell lysate array on evanescent field sensor platform, detection with antibody A4
Assay type: cell-based, human
Settings: Jurkat cells, staurosporine 10 μM, 180 min

`CN[C@@H]1C[C@H]2O[C@@](C)([C@@H]1OC)n1c3ccccc3c3c4c(c5c6ccccc6n2c5c31)C(=O)NC4` [staurosporin, staurosporine] was tested, and the “relative total content of Erk2/pErk2 in comparison with the other samples” value was “no difference”.
